Patent EP4703362A1 (Chengdu Sibeibo Pharmaceutical Technology Co., Ltd, priority 2023, dated 2024)
Read-outs that look alike come from different tables or passages of the source. Blank lines part the entries; values can stand above or below the compound they belong to.

How the values were obtained:
[1] = biological target: T1, CGRP receptor complex (Homo sapiens, UniProt O60894+Q16602); test: determination of cell functional antagonism - cAMP determination; type: cell-based; conditions: for IC50 values / inhibitory activities (in words): inhibition of CGRP-stimulated cAMP formation, statement of the conclusion
T1 construct: host or cells: SK-N-MC
Procedure: 1.Experimental principle A CGRP receptor complex was coupled with Gs in G protein, the combination of CGRP and CGRP receptor complex led to Gs activation, and cAMP (3',5'-cyclic adenosine monophosphate) was produced. 2.Experimental purpose The ability of the compound of the present invention to inhibit CGRP-stimulated cAMP formation in SK-N-MC cells was determined. 3.Experimental materials 3.1Experimental cell line: SK-N-MC (neuroepithelioma cells) from National Science and Technology Infrastructure - Biomedical Materials and Cell Resources. 3.2Reagents and consumables
4.Experimental steps • 4.1Cell preparation: The SK-N-MC cells were resuscitated and cultured in advance, and a cell confluence degree should be 70%-80% before use. • 4.2A sample dilution, a tested compound and α-CGRP (human) were prepared. • 4.3Cell seeding and drug effect: The SK-N-MC cells were digested, centrifuged, then resuspended with the sample dilution, and inoculated into a 384-well plate. Each well was added with the α-CGRP (human) and the tested compound respectively, and blown and mixed evenly. The well plate was adhered with a sealing film, and placed on an enzyme-labeled incubator to incubate at 25°C. • 4.4cAMP determination: carried out according to LANCE Ultra cAMP Kit specification Eu-cAMP tracer and ULight-anti-cAMP working solutions were prepared in the dark, respectively added into the well plate, and blown and mixed evenly.

[2] = biological target: T2, CGRP receptor (Homo sapiens, UniProt O60894+Q16602); test: Competitive binding determination of in-vitro [125I] CGRP; conditions: competition with 125I-CGRP (Human) 200 pM, SK-N-MC cell membrane
T2 construct: A tissue homogenate of SK-N-MC cell membrane was used as a receptor source; host or cells: SK-N-MC (membrane preparation)
Procedure: The ability of the compound to compete for a radiolabelled endogenous peptide human αCGRP ([^125I] CGRP) was determined.
The SK-N-MC cells endogenously expressed a CGRP receptor with the same sequence as the human CGRP receptor. A tissue homogenate of SK-N-MC cell membrane was used as a receptor source, and the radiolabelled endogenous peptide human αCGRP ([^125I] CGRP) and the compound competitively bound with the receptor source. After washing the unbound part of [^125I] CGRP, the binding of the reaction compound on the receptor could be detected by a radioactive signal.
3.1 Experimental cell line: SK-N-MC (human neuroepithelioma cells) from Cell Resource Center, Peking Union Medical College 3.2 Detection equipment: MicroBeta2 (PerkinElmer), and […]-96 well cell collector (PerkinElmer, C961961) 3.3 Experimental reagents and consumables
3.4 Experimental steps • 3.4.1 Extraction and quantification of membrane protein: fresh SK-N-MC cells were collected. The cell pellet was resuspended with an experimental buffer (Tris-HCl 50 mM, pH 7.4). The cells were homogenized 10 times by a homogenizer, and centrifuged at 1000 g and 4°C for 10 minutes, then nuclear/mitochondrial fragments were removed, and a supernatant tissue homogenate was collected. The supernatant was centrifuged at 50000 g and 4°C for 1 hour, and then a supernatant was removed. Particles were suspended with an appropriate buffer, and after determing the protein concentration, the suspension was packaged and then stored at -80°C. • 3.4.2 Determination of binding Ki (inhibition constant) of compound: 1 µL of continuously diluted tested compound was transferred to an assay plate. […] Each well was added with 50 µL of 0.3% PEI to soak the mixture for 1 hour. The reaction mixture was filtered by a […]-96 well cell collector, and the plate was washed with a pre-cooled buffer. […] A ^3H signal was captured by a MicroBeta2 Reader counting filter. • 3.4.3 Data analysis
Data were analyzed by Prism 5.

[3] = inhibition of CGRP-stimulated cAMP formation in SK-N-MC cells, read-out: IC50
[4] = inhibition of CGRP-stimulated cAMP formation in SK-N-MC cells

SMILES: [2H]c1n[nH]c2c(C)cc(C[C@@H](NC(=O)N3CCC(c4cc5c([nH]c4=O)SCCC5)CC3)C(=O)N3CCN(C4CCN(C([2H])([2H])[2H])CC4)CC3)cc12 [Example 38, (R)-N-(3-(7-methyl-1H-indazole-5-yl-3-d)-1-(4-(1-(methyl-d3)piperidine-4-yl)piperazine-1-yl)-1-oxopropan-2-yl)-4-(7-oxo-3,4,7,8-tetrahydro-2H-thiopyrano[2,3-b]pyridine-6-yl)piperidine-1-formamide]
- IC50 [1, 3]: 0.07 nM

SMILES: [2H]c1n[nH]c2c(C)cc(C[C@@H](NC(=O)N3CCC(c4cc5c([nH]c4=O)SCCC5)CC3)C(=O)N3CCN(C4CCN(C)CC4)CC3)cc12 [Example 37, (R)-N-(3-(7-methyl-1H-indazole-5-yl-3-d)-1-(4-(1-methylpiperidine-4-yl)piperazine-1-yl)-1-oxopropan-2-yl)-4-(7-oxo-3,4,7,8-tetrahydro-2H-thiopyrano[2,3-b]pyridine-6-yl)piperidine-1-formamide]
- IC50 [1, 4]: 0.15 nM

SMILES: Cc1cc(C[C@@H](NC(=O)N2CCC(c3cc4c([nH]c3=O)SCCC4)CC2)C(=O)N2CCN(C3CCN(C)CC3)CC2)cc2cn[nH]c12 [Example 6, (R)-N-(3-(7-methyl-1H-indazole-5-yl)-1-(4-(1-methylpiperidine-4-yl)piperazine-1-yl)-1-oxopropan-2-yl)-4-(7-oxo-3,4,7,8-tetrahydro-2H-thiopyrano[2,3-b]pyridine-6-yl)piperidine-1-for mamide]
- Ki [2]: 0.0195 nM
- IC50 [1, 4]: 0.21 nM

SMILES: Cc1cc(C[C@@H](NC(=O)N2CCC(c3cc4c([nH]c3=O)[S+]([O-])CC4(C)C)CC2)C(=O)N2CCN(C3CCN(C)CC3)CC2)cc2cn[nH]c12 (stereo partly drawn) [Example 9, 4-(3,3-dimethyl-1-oxidation-6-oxo-2,3,6,7-tetrahydrothieno[2,3-b]pyridine-5-yl)-N-((R)-3-(7-methyl-1H-indazole-5-yl)-1-(4-(1-methylpiperidine-4-yl)piperazine-1-yl)-1-oxopropan-2-yl)piperidine-1-formamide]
- IC50 [1]: 0.86 nM
- IC50 values / inhibitory activities (in words) [1]: pM level

SMILES: Cc1cc(C[C@@H](NC(=O)N2CCC(c3cc4c([nH]c3=O)SCC4)CC2)C(=O)N2CCN(C3CCN(C)CC3)CC2)cc2cn[nH]c12 [Example 8, (R)-N-(3-(7-methyl-1H-indazole-5-yl)-1-(4-(1-methylpiperidine-4-yl)piperazine-1-yl)-1-oxopropan-2-yl)-4-(6-oxo-2,3,6,7-tetrahydrothieno[2,3-b]pyridine-5-yl)piperidine-1-formamide]
- Ki [2]: 0.0116 nM
- IC50 [1, 3]: 0.41 nM
- IC50 values / inhibitory activities (in words) [1]: pM level

SMILES: [2H]c1n[nH]c2c(C)cc(C[C@@H](NC(=O)N3CCC(c4cc5c([nH]c4=O)SCC5)CC3)C(=O)N3CCN(C4CCN(C([2H])([2H])[2H])CC4)CC3)cc12 [Example 43, (R)-N-(3-(7-methyl-1H-indazole-5-yl-3-d)-1-(4-(1-(methyl-d3)piperidine-4-yl)piperazine-1-yl)-1-oxopropan-2-yl)-4-(6-oxo-2,3,6,7-tetrahydrothieno[2,3-b]pyridine-5-yl)piperidine-1-for mamide]
- IC50 [1, 4]: 0.1 nM

- Ki [2]: 0.0166 nM
- IC50 [1, 3]: 0.19 nM
SMILES: [2H]C([2H])([2H])N1CCC(N2CCN(C(=O)[C@@H](Cc3cc(C)c4[nH]ncc4c3)NC(=O)N3CCC(c4cc5c([nH]c4=O)SCCC5)CC3)CC2)CC1 [Example 30, (R)-N-(3-(7-methyl-1H-indazole-5-yl)-1-(4-(1-(methyl-d3)piperidine-4-yl)piperazine-1-yl)-1-oxopropan-2-yl)-4-(7-oxo-3,4,7,8-tetrahydro-2H-thiopyrano[2,3-b]pyridine-6-yl)piperidine-1-formamide]

SMILES: [2H]c1n[nH]c2c(C)cc(C[C@@H](NC(=O)N3CCC(c4cc5c([nH]c4=O)SCC5)CC3)C(=O)N3CCN(C4CCN(C)CC4)CC3)cc12 [Example 44, (R)-N-(3-(7-methyl-1H-indazole-5-yl-3-d)-1-(4-(1-methylpiperidine-4-yl)piperazine-1-yl)-1-oxopropan-2-yl)-4-(6-oxo-2,3,6,7-tetrahydrothieno[2,3-b]pyridine-5-yl)piperidine-1-formamide]
- IC50 [1, 4]: 0.06 nM
